Results taken from patent publication US20230263751A1, “Compositions and Methods of Use of beta-hydroxy-beta-methylbutyrate (HMB) and Chemotherapy Agents” (Metabolic Technologies, LLC, priority 2020, published 2023).

System: EAC cells
Test: Tumor growth inhibition and morphological evaluation of mice with EAC
Format: in vivo, Balb/c mice (Mus musculus)
Details: i.p. 9 days, Doxo 1 mg/kg/day, HMB 617.3 mg/kg/day, mean ± SD, n=6; for Body weight variation: weight before inoculation vs day of euthanasia
Procedure: Female (18 to 23 g weight, 60 days) Balb/c mice (Mus musculus) obtained from controlled reproduction carried out in the sectoral bioterium of the Federal University of Santa Catarina (Brazil), were kept in plastic cages under controlled environmental conditions (12 h light-dark cycle, 25±2° C., relative humidity 60%), receiving commercial feed and water ad libitum.
The moment before the tumor was inoculated, the abdominal circumference was measured. The treatments were administered intraperitoneally for 9 consecutive days. Twenty-four hours after the last treatment, all mice were weighed and their abdominal circumferences measured again. The inhibition (%) of tumour growth was calculated as follow: [(average in waist circumference of the treated group×100)/average in waist circumference of the control group]−100.
In addition, after euthanasia, all ascitic fluid was collected to measure volume and weight. Finally, Balb/c mice (n=12) were chosen at random and kept alive to assess the effects of HMB, Doxo and Doxo+HMB on survival time according to Kaplan and Meier (1958); survival assessments were discontinued after 30 days.

SMILES | Ascitic fluid volume | Body weight variation
COc1cccc2c1C(=O)c1c(O)c3c(c(O)c1C2=O)C[C@@](O)(C(=O)CO)C[C@@H]3O[C@H]1C[C@H](N)[C@H](O)[C@H](C)O1 [Doxo, doxorubicin] | 7.6 ± 1.3^α*** mL | 8.8 ± 1.6^α* g
CC(C)(O)CC(=O)O [HMB, β-hydroxy-β-methylbutyrate] | 10.3 ± 1.3^α** mL | 8.8 ± 1.4^α* g
